Consider one substance from patent US20050255041A1, “Cancerous disease modifying antibodies” (Arius Research, Inc., priority 2004, published 2005).

Data set [1] concerns OVCAR-3. Description: Live/Dead cytotoxicity assay, purified antibody. Format: cell-based, human. Conditions: 5 days; AR2A72.10 and AR3BD-26 20 μg/mL, anti-fas and anti-Her2/neu 10 μg/mL, anti-EGFR 5 μg/mL, cycloheximide 0.5 μM, NaN3 0.1%.
The next data set concerns Hey. Description: Binding by flow cytometry (FACS). Also noted: species or system human. Conditions: printed: AR2A72.10 20 mg/mL, anti-fas 10 mg/mL, anti-EGFR C225 5 mg/mL; on ice 30 minutes. Here is the method: (§1) Binding of AR2A72.10 to the above-mentioned panel of cancer and normal cell lines was also assessed by flow cytometry (FACS). Cells were prepared for FACS by initially washing the cell monolayer with DPBS (without Ca^++ and Mg^++). Cell dissociation buffer (INVITROGEN, Burlington, ON) was then used to dislodge the cells from their cell culture plates at 37° C. After centrifugation and collection, the cells were resuspended in DPBS containing MgCl2, CaCl2 and 2 percent fetal bovine serum at 4° C. (staining media) and counted, aliquoted to appropriate cell density, spun down to pellet the cells and resuspended in staining media at 4° C. in the presence of test antibodies (AR2A72.10) or control antibodies (isotype control, anti-Fas) at 20 μg/mL on ice for 30 minutes. Prior to the addition of Alexa Fluor 488-conjugated secondary antibody the cells were washed once with staining media. The Alexa Fluor 488-conjugated antibody in staining media was then added for 30 minutes. The cells were then washed for the final time and resuspended in fixing media (staining media containing 1.5% paraformaldehyde). Flow cytometric acquisition of the cells was assessed by running samples on a FACScan using the CellQuest software (BD Biosciences, Oakville, ON). The forward (FSC) and side scatter (SSC) of the cells were set by adjusting the voltage and amplitude gains on the FSC and SSC detectors. […] Table 3 tabulated the mean fluorescence intensity fold increase above isotype control and is presented qualitatively as: less than 1.5 (−); 1.5 to 3 (+); 4 to 10 (++); 11 to 100 (+++) and >100 (++++).
A general note: A flow cytometer gives signals particle by particle.

The test system of the next data set is ES-2. Description: Binding by flow cytometry (FACS). Details: species or system human. Conditions: printed: AR2A72.10 20 mg/mL, anti-fas 10 mg/mL, anti-EGFR C225 5 mg/mL; on ice 30 minutes. Here is the method:
as §1

The next data set relates to Hs888.Lu. Description: Binding by flow cytometry (FACS). Details: species or system human. Conditions: printed: AR2A72.10 20 mg/mL, anti-fas 10 mg/mL, anti-EGFR C225 5 mg/mL; on ice 30 minutes. As for the experimental part: as §1
The test system of the next data set is OVCA-429. Description: Binding by flow cytometry (FACS). Details: species or system human. Conditions: printed: AR2A72.10 20 mg/mL, anti-fas 10 mg/mL, anti-EGFR C225 5 mg/mL; on ice 30 minutes. As for the experimental part: as §1
Another data set concerns OCC-1. Description: Binding by flow cytometry (FACS). Details: species or system human. Conditions: printed: AR2A72.10 20 mg/mL, anti-fas 10 mg/mL, anti-EGFR C225 5 mg/mL; on ice 30 minutes. Here is the method: as §1
The subject of a further data set is C-13. Description: Binding by flow cytometry (FACS). Details: species or system human. Particulars: printed: AR2A72.10 20 mg/mL, anti-fas 10 mg/mL, anti-EGFR C225 5 mg/mL; on ice 30 minutes. As for the experimental part: as §1
For another data set, the system named is A2780-cp. Description: Binding by flow cytometry (FACS). Details: species or system human. Conditions: printed: AR2A72.10 20 mg/mL, anti-fas 10 mg/mL, anti-EGFR C225 5 mg/mL; on ice 30 minutes. As for the experimental part: as §1
The test system of data set [2] is OVCAR-3. Description: Binding by flow cytometry (FACS). Details: species or system human. Conditions: printed: AR2A72.10 20 mg/mL, anti-fas 10 mg/mL, anti-EGFR C225 5 mg/mL; on ice 30 minutes. Here is the method:
as §1

The subject of a further data set is OV2008. Description: Binding by flow cytometry (FACS). Also noted: species or system human. Particulars: printed: AR2A72.10 20 mg/mL, anti-fas 10 mg/mL, anti-EGFR C225 5 mg/mL; on ice 30 minutes. Here is the method:
as §1

The next data set concerns CCD-27sk. Description: Binding by flow cytometry (FACS). Also noted: species or system human. Conditions: printed: AR2A72.10 20 mg/mL, anti-fas 10 mg/mL, anti-EGFR C225 5 mg/mL; on ice 30 minutes. Here is the method:
as §1

Consider “anti-EGFR: anti-EGFR (C225, IgG1, kappa, Cedarlane), positive control antibody”, for which the “In vitro cytotoxicity, OVCAR-3” value in the data set on OVCAR-3 [1] is “+ (2/4 experiments greater than threshold cytotoxicity)”. Moreover, the “FACS mean fluorescence intensity fold increase above isotype control, Hey” value in the data set with Hey is on record as “+++ (11 to 100)”. Besides, the “FACS mean fluorescence intensity fold increase above isotype control, ES-2” value in the data set on ES-2 is “+++ (11 to 100)”. In addition, the “FACS mean fluorescence intensity fold increase above isotype control, Hs888.Lu (normal)” value in the data set with Hs888.Lu is recorded as “+++ (11 to 100)”. For the same substance, the “FACS mean fluorescence intensity fold increase above isotype control, OVCA-429” value with OVCA-429 is on record as “+++ (11 to 100)”. Besides, the “FACS mean fluorescence intensity fold increase above isotype control, OCC-1” value in the data set on OCC-1 was “+++ (11 to 100)”. Further, the “FACS mean fluorescence intensity fold increase above isotype control, C-13” value in the data set on C-13 is reported as “+++ (11 to 100)”. The “FACS mean fluorescence intensity fold increase above isotype control, A2780-cp” value in the data set with A2780-cp was “+ (1.5 to 3)”. The “FACS mean fluorescence intensity fold increase above isotype control, OVCAR-3” value in the data set on OVCAR-3 [2] was “+++ (11 to 100)”. Besides, the “FACS mean fluorescence intensity fold increase above isotype control, OV2008” value in the data set with OV2008 is on record as “+++ (11 to 100)”. Besides, the “FACS mean fluorescence intensity fold increase above isotype control, CCD-27sk (normal)” value in the data set on CCD-27sk was “++ (4 to 10)”.
